The record followed here is EP4831170A1, “NITROGEN HETEROCYCLIC COMPOUND AND USE THEREOF” (dated 2026).

In data set [1] the test system is senescent cells (A549 cells). The data set is described as follows: Senescent cell viability assay (CellTiter-Glo), etoposide-induced senescent A549 cells. To be noted: read-out: IC50 (µM, senescent cells), A549 cells made senescent with etoposide (10 µM), 72 h incubation.
A short description of data set [2]: Kinetic solubility in PBS, LC-MS/MS. To be noted: 100 mM PBS, 1 hour shaking at room temperature.

A word on the IC50: it is the concentration at which inhibition is half-maximal.

`Cc1c(-c2ccc(N3CCc4ccnc(C(=O)Nc5nc6ccccc6s5)c4C3)nc2C(=O)N2CCC(COP(=O)(O)O)CC2)cnn1CC12CC3CC(CC(C3)C1)C2`: the IC50 in data set [1] is < 0.2 µM. Regarding `CC1C(c2ccc(N3CCc4ccnc(C(=O)Nc5nc6ccccc6s5)c4C3)nc2C(=O)O)CCN1CC12CC3CC(CC(C3)C1)C2` (centres unmarked), the IC50 in data set [1] lay within 1 to 10 µM. On the same count and under the same terms, in the case of `COC(=O)C12CC3CC(CC(Cn4ncc(-c5ccc(N6CCc7ccnc(C(=O)Nc8nc9ccccc9s8)c7C6)nc5C(=O)O)c4C)(C3)C1)C2` it was < 0.2 µM.

Regarding `Cc1c(-c2ccc(N3CCc4ccnc(C(=O)Nc5nc6ccccc6s5)c4C3)nc2C(=O)N2CCC(OP(=O)(O)O)CC2)cnn1CC12CC3CC(CC(C3)C1)C2`, in data set [1], the IC50 is < 0.2 µM.

As for `Cc1c(-c2ccc(N3CCc4cccc(C(=O)Nc5nc6ccccc6s5)c4C3)nc2C(=O)O)cnn1CC12CC3CC(CC(C3)C1)C2`, the “Kinetic solubility” value in data set [2] is recorded as 0.021 µM.
